# Tests used:
# The chains behind the UniProt entries cited, without tags or fusion partners.
# UniProt Q93009, whole entry: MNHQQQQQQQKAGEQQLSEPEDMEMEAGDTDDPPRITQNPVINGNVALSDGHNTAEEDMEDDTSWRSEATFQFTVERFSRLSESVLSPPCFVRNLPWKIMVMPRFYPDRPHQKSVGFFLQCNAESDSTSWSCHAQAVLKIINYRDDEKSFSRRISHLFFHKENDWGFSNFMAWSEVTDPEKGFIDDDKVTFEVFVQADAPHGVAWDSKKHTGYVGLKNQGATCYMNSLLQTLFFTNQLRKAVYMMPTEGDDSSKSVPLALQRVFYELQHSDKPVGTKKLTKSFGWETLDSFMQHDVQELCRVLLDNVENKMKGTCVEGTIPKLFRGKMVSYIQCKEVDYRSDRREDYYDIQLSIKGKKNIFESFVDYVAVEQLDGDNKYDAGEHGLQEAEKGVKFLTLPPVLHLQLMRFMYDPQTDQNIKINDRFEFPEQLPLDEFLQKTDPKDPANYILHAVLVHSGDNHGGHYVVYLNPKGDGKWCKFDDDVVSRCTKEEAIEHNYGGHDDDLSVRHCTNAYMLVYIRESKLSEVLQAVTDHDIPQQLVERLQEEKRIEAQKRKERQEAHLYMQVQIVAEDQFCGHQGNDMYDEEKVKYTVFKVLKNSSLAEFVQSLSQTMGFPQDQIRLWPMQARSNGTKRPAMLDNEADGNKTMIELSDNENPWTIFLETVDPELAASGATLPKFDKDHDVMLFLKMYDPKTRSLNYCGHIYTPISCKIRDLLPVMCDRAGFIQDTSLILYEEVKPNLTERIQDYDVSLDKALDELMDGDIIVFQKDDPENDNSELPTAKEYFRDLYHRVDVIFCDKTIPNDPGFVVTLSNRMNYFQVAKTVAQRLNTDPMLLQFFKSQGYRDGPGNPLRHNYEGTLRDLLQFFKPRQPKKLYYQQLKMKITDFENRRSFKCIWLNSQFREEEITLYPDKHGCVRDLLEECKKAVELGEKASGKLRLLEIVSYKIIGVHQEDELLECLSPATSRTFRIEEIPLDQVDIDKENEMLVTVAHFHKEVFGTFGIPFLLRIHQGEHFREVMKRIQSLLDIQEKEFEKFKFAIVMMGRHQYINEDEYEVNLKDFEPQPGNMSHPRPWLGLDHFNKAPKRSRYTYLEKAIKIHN
# [1] = system: CAL33, BT474, DU145 and SK-N-DZ; assay: Colony formation assay in several human cancer cell lines; assay type: cell-based; settings: 10 μM, 2 weeks
# Method: FIGS. 12A and 12B show representative images of BrdU staining (FIG. 12A) and quantification of BrdU positive (BrdU+) cells (FIG. 12B) in CAL33 cells treated with or without 10 μM of PU7-1 for 72 h. ****p<0.0001. FIGS. 12C and 12D show representative images (FIG. 12C) and normalized absorbance at 600 nm (FIG. 12D) of colony-formation assays in BT474, CAL33, DU145, SK-NDZ treated with or without 10 μM of PU7-1 for 2 weeks.
# Transcription factor FOXM1 is a master regulator of the cell cycle. It tightly controls the cell cycle progression and maintains sustained cell proliferation via its various downstream target genes crucial for cell cycle regulation 16. To explore the functional consequences of PU7-1-mediated FOXM1 degradation, a transcriptome analysis was performed. CAL33 cells were treated with or without 10 μM of PU7-1 for 96 h and total RNA were extracted for RNAseq analysis. We identified ˜5000 differentially expressed genes (DEGs) in DMSO-treated versus PU7-1-treated cells (FIG. 22). […] This effect was further validated in CAL33 cells by quantitative real-time PCR (FIG. 4H).
# 1000 cells (10000 cells for BT474) were seeded in 12-well plates. Next day cells were treated with DMSO or PU7-1 for 2 weeks. […] For quantification purpose, 1 ml of 30% acetic acid was added to de-stain for 15 min with gentle rotation. The absorbance at 600 nm was measured by using a plate reader in triplicates.
# USPs including USP47 = assay: Western blot selectivity over other USPs in CAL33 cells; assay type: cell-based, human; settings: CAL33, 10 μM, 72 h
# Method: (§1) The expression of USP proteins was detected by immunoblotting. […] Quantitative proteomics analysis were then performed. The volcano plot represents all deferentially expressed genes in DMSO control versus PU7-1.
# (§2) Lastly, because of the high homology in USP protein family, the selectivity of PU7-1 against potential off-target effects was studied. Western blot analysis of several USPs including USP47, the closest homolog of USP7, were performed in CAL33 cells treated with 10 μM of PU7-1 for 72 h. […] To further investigate the selectivity of PU7-1 proteome-wide, mass spectrometry-based quantitative proteomic analysis was performed in human lung cancer A549 cells treated with or without 2.5 μM of PU7-1 for 72 h. […] In contrast, there was no measurable decrease in the protein levels of the other 29 deubiquitinases (FIG. 3J). These findings imply that PU7-1 is an effective and selective PROTAC degrader for the USP7 protein.
# [2] = target: deubiquitinases (proteome-wide) (Homo sapiens, UniProt Q93009); assay: Mass spectrometry-based quantitative proteomic analysis in A549 cells; assay type: cell-based; settings: 2.5 μM, 72 h
# Method: (§3) USP7 protein levels were detected by immunoblots. […] USP7 protein levels were measured by immunoblots. […] USP7 protein levels were detected by immunoblots, then quantified by ImageJ after normalized to internal control β-actin. Half maximal degradation concentration (DC50) was calculated by Graphpad Prism.
# as §1, §2
# [3] = system: deubiquitinases (proteome-wide); assay: as above; assay type: cell-based, human; settings: 2.5 μM, 72 h
# Method: as §3, §1, §2
# USP7 mRNA = assay: Quantitative real-time PCR of USP7 mRNA in CAL33; settings: CAL33, 72 h
# Method: as §3
# To specifically degrade USP7, a set of 66 PROTAC compounds were designed and synthesized that contain an USP7 specific binding moiety XL177A and an E3 ubiquitin ligase (CRBN or VHL) binding moiety connected by different linkers. All putative USP7 PROTACs were used to treat CAL33 cells that express high levels of USP7 protein, and then the USP7 protein levels were determined by western blot (FIGS. 10A and 10B). Through initial screening, PU7-1 was identified as a potential USP7 degrader (FIG. 3A and FIG. 10). […] The effect of PU7-1 was also tested in several human cancer cells harboring wild-type p53. […] In addition, to exclude the possibility that PU7-1 affects the USP7 protein levels by regulating its transcription, a quantitative real-time PCR was performed in CAL33 treated with PU7-1 for 72 h. […] In addition, the half-life of USP7 protein was examined in CAL33 cells in the presence or absence of PU7-1 treatment. […] CAL33 were also treated with the different dosage of PU7-1 ranging from 0.0001 to 10 µM for 24 h. […]
# MDA-MB-468 xenografts = assay: MDA-MB-468 xenograft mouse model; settings: 37.5 mg/kg intraperitoneally
# Method: Given the high expression of FOXM1 in triple-negative breast cancer, the effects of the USP7 degrader PU7-1 were next investigated in TNBC cells. First, three TNBC cell lines MDA-MB-468, MDA-MB-231 and BT549 were treated with 10 μM of PU7-1 for 96 h. The protein levels of FOXM1 were determined by Western blot. […] Next, the effects of PU7-1 were examined on TNBC cell proliferation. MDA-MB468 and BT549 were incubated in the complete growth medium with or without 10 μM of PU7-1 for two weeks. Colonies were stained by crystal violet dye that stains nucleic acids and proteins and is used to reflect the cell number. […] Furthermore, the dye bound to the cells was solubilized with 30% acetic acid and measured by the absorbance at 600 nm. The viability of PU7-1-treated cells is about 20% of the control cells in MDA-MB-468 or 30% of the control cells in BT549 (FIG. 5C). […] The IC50 of PU7-1 in TNBC cells were then determined using a luminescent cell viability assay. […] Lastly, the xenograft mouse model was utilized to investigate the in vivo efficacy of PU7-1 in TNBC. Two million of MDA-MB-468 cells were subcutaneously inoculated into 6-8-week female nude mice. PU7-1 was intraperitoneally administrated at the dosage of 37.5 mg/kg daily for 3 weeks, 6 days per week (FIG. 5E). At the endpoint, tumors were dissected, weighed, and photographed. […]
smiles,measurement,setting,value
O=C1CCC(N2Cc3c(CCCCCN4CCN(CCC(=O)Nc5ccc6c(=O)n(CC7(O)CCN(C(=O)C(CCCNC(=O)c8ccc9c(Cl)c%10c(nc9c8)CCCC%10)Cc8ccccc8)CC7)cnc6c5)CC4)cccc3C2=O)C(=O)N1 (stereo not shown),growth inhibition in colony formation assay,[1],marked growth inhibition
same,USP7 degradation among USPs tested,USPs including USP47,only protein degraded
same,protein levels of the other USPs,USPs including USP47,no change
same,USP7 change among ~5500 proteins quantified,[2],most significantly decreased protein
same,protein levels of the other 29 deubiquitinases,[3],no measurable decrease
same,expression levels of USP7 mRNA,USP7 mRNA,not altered
same,"USP7, FOXM1 and Ki67 in tumor sections (immunohistochemistry)",MDA-MB-468 xenografts,dramatically lower levels
